Laboratory results published in US20240246946A1, “MODULATORS OF TREX1” (Constellation Pharmaceuticals, Inc., priority 2021, published 2024).

By UniProt entry, the sequences of proteins in these tests, tags left out.
UniProt Q9NSU2, whole entry: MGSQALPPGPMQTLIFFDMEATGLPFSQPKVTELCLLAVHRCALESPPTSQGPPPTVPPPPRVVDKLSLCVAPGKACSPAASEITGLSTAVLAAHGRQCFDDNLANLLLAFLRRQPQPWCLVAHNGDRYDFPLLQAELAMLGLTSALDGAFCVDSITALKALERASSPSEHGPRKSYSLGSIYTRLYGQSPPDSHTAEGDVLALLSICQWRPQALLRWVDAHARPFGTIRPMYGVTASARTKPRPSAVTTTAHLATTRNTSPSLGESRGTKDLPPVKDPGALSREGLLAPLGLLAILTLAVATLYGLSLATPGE
UniProt Q91XB0, whole entry: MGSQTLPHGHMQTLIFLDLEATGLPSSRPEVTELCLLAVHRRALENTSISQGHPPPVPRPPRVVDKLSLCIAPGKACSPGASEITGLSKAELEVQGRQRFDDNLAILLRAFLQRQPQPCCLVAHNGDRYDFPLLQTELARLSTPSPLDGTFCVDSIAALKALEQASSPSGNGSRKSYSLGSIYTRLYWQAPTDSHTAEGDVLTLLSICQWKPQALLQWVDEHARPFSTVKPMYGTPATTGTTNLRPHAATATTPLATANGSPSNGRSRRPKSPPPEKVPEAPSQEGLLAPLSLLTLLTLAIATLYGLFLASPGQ
UniProt Q9BQ50, whole entry: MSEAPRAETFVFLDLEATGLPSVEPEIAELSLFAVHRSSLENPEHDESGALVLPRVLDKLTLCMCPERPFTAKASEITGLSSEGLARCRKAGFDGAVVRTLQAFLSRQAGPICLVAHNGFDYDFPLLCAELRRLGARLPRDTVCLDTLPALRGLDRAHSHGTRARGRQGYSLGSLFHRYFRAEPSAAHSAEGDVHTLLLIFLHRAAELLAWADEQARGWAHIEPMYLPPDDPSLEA

What was measured:
full length human TREX1 [1] = target: T1, full length human TREX1 (Homo sapiens, UniProt Q9NSU2); test: hTREX1 Biochemical Assay (fluorescence, dsDNA substrate degradation); settings: read-out: hTREX1 IC50
full length mouse TREX1 = full length mouse TREX1 (Mus musculus, UniProt Q91XB0); test: mTREX1 Biochemical Assay (fluorescence, dsDNA substrate degradation); settings: read-out: mTREX1 IC50
[2] = target: human TREX2 (residues M44-A279) (Homo sapiens, UniProt Q9BQ50); test: hTREX2 Biochemical Assay (fluorescence, dsDNA substrate degradation); settings: biochemical selectivity for hTREX1 vs hTREX2
Method: Degradation of the dsDNA liberates free fluorophore to produce a fluorescent signal. Specifically, 7.5 μL of N-terminally His-Tev tagged human TREX2 (residues M44-A279, expressed in E. coli and purified in house) in reaction buffer (50 mM Tris, 150 mM NaCl, 2 mM DTT, 0.1 mg/mL BSA, 0.01% (w/v) Tween-20, 5 mM MgCl2, pH 7.4) was added to a 384-well Black ProxiPlate Plus (PerkinElmer) which already contained compound (150 nL) at varying concentrations as a 10 point dose-response in DMSO. The plate was incubated at 25° C. for 4 hours. Reactions were initiated by adding 7.5 μL of dsDNA substrate (Strand A: 5′ TEX615/GCT AGG CAG 3′; Strand B: 5′ CTG CCT AGC/IAbRQSp (IDT)) in reaction buffer. Final concentrations were 50 pM TREX2, 60 nM dsDNA substrate in reaction buffer with 1.0% DMSO (v/v). After 18 hours at 25° C., reactions were quenched by the addition of 2 μL of 500 mM EDTA. Final concentrations in the quenched reaction mixture were 44 pM TREX2, 53 nM DNA and 59 mM EDTA in a volume of 17 μL. After a 5-minute incubation at room temperature, plates were read in an EnVision plate reader (PerkinElmer) measuring fluorescence at 615 nm following excitation w/570 nm light. IC50 values were calculated by comparing the measured fluorescence at 615 nm relative to control wells pre-quenched w/stop buffer (100% inhibition) and no inhibitor (0% inhibition) controls as using non-linear least square four parameter fits and either Genedata or GraphPad Prism (GraphPad Software, Inc.).

full length human TREX1 [3] = target: T1, full length human TREX1; test: TREX1 Kinetics Assays (TR-FRET association and dissociation, global fit with Kintek Explorer)

SMILES | IC50 (full length human TREX1 [1]) [nM] | IC50 (full length mouse TREX1) [nM] | hTREX1 vs hTREX2 selectivity [2] | residence time (full length human TREX1 [3]; hTREX1, TR-FRET kinetics) [min] | koff (full length human TREX1 [3]; hTREX1, TR-FRET, 25° C., global fit) [min⁻¹]
CC(c1nc(C(=O)Nc2cnoc2)c(O)c(=O)n1C)C(c1ccccc1C#N)c1cn(C)nc1C(F)(F)F (single isomer, unassigned) [Example 90 D2E1] | > 10 | > 10 | B (B = 25 to 50-fold selective for hTREX1) | – | –
CC(c1nc(C(=O)Nc2cnoc2)c(O)c(=O)n1C)C(c1ccccc1C#N)c1cn(C)nc1C(F)(F)F (single isomer, unassigned) [Example 90 D2E2] | 1 to 10 | > 10 | B (B = 25 to 50-fold selective for hTREX1) | – | –
COCCn1cc(C(c2cc(F)ccc2Cl)C(C)c2nc(C(=O)Nc3cnoc3)c(O)c(=O)n2C)c(C)n1 (single isomer, unassigned) [Example 107 D1E1] | < 1 | 1 to 10 | C (C = >50 fold selective for hTREX1) | – | –
COCCn1cc(C(c2cc(F)ccc2Cl)C(C)c2nc(C(=O)Nc3cnoc3)c(O)c(=O)n2C)c(C)n1 (single isomer, unassigned) [Example 107 D1E2] | > 10 | > 10 | A (A = <25 fold selective for hTREX1) | – | –
COCCn1cc(C(c2cc(F)ccc2Cl)C(C)c2nc(C(=O)Nc3cnoc3)c(O)c(=O)n2C)c(C)n1 (single isomer, unassigned) [Example 107 D2E1] | > 10 | > 10 | A (A = <25 fold selective for hTREX1) | – | –
COCCn1cc(C(c2cc(F)ccc2Cl)C(C)c2nc(C(=O)Nc3cnoc3)c(O)c(=O)n2C)c(C)n1 (single isomer, unassigned) [Example 107 D2E2] | > 10 | > 10 | – | – | –
Cc1cc(C(c2cc(F)ccc2Cl)C(C)c2nc(C(=O)Nc3cnoc3)c(O)c(=O)n2C)nn1C (single isomer, unassigned) [Example 114 D1E1] | 1 to 10 | > 10 | B (B = 25 to 50-fold selective for hTREX1) | – | –
Cc1cc(C(c2cc(F)ccc2Cl)C(C)c2nc(C(=O)Nc3cnoc3)c(O)c(=O)n2C)nn1C (single isomer, unassigned) [Example 114 D1E2] | > 10 | > 10 | A (A = <25 fold selective for hTREX1) | – | –
Cc1cc(C(c2cc(F)ccc2Cl)C(C)c2nc(C(=O)Nc3cnoc3)c(O)c(=O)n2C)nn1C (single isomer, unassigned) [Example 114 D2E1] | 1 to 10 | > 10 | B (B = 25 to 50-fold selective for hTREX1) | – | –
Cc1cc(C(c2cc(F)ccc2Cl)C(C)c2nc(C(=O)Nc3cnoc3)c(O)c(=O)n2C)nn1C (single isomer, unassigned) [Example 114 D2E2] | > 10 | > 10 | – | – | –
Cc1ncc(C(c2cc(F)ccc2Cl)C(C)c2nc(C(=O)Nc3cnoc3)c(O)c(=O)n2C)nc1C (single isomer, unassigned) [Example 126 D1E1] | 1 to 10 | > 10 | A (A = <25 fold selective for hTREX1) | – | –
Cc1ncc(C(c2cc(F)ccc2Cl)C(C)c2nc(C(=O)Nc3cnoc3)c(O)c(=O)n2C)nc1C (single isomer, unassigned) [Example 126 D1E2] | < 1 | 1 to 10 | C (C = >50 fold selective for hTREX1) | – | –
Cc1ncc(C(c2cc(F)ccc2Cl)C(C)c2nc(C(=O)Nc3cnoc3)c(O)c(=O)n2C)nc1C (single isomer, unassigned) [Example 126 D2E1] | 1 to 10 | > 10 | A (A = <25 fold selective for hTREX1) | – | –
Cc1ncc(C(c2cc(F)ccc2Cl)C(C)c2nc(C(=O)Nc3cnoc3)c(O)c(=O)n2C)nc1C (single isomer, unassigned) [Example 126 D2E2] | > 10 | > 10 | – | – | –
CC(c1nc(C(=O)Nc2cnoc2)c(O)c(=O)n1C)C(c1ccccc1C#N)c1cn(C(C)C)nc1F (single isomer, unassigned) [Example 128 D1E1] | < 1 | < 1 | B (B = 25 to 50-fold selective for hTREX1) | – | –
Cn1cc(C(c2ccccc2C#N)C(F)(F)c2nc(C(=O)Nc3cnoc3)c(O)c(=O)n2C)cn1 (single isomer, unassigned) [Example 148 D1] | 1 to 10 | > 10 | C (C = >50 fold selective for hTREX1) | – | –

Second part, the molecule after the results:

IC50 (full length human TREX1 [1]) [nM] | IC50 (full length mouse TREX1) [nM] | hTREX1 vs hTREX2 selectivity [2] | residence time (full length human TREX1 [3]; hTREX1, TR-FRET kinetics) [min] | koff (full length human TREX1 [3]; hTREX1, TR-FRET, 25° C., global fit) [min⁻¹] | SMILES
> 10 | > 10 | – | – | – | CC(c1nc(C(=O)Nc2cnoc2)c(O)c(=O)n1C)C(c1cc(F)ccc1C#N)c1cn(C)nc1C#N (stereo not drawn)
> 10 | > 10 | – | – | – | COC(C)(C)Cn1cc(C(c2ccccc2Cl)C(C)c2nc(C(=O)Nc3cnoc3)c(O)c(=O)n2C)cn1 (single isomer, unassigned)
< 1 | 1 to 10 | – | – | – | CC(c1nc(C(=O)Nc2cnoc2)c(O)c(=O)n1C)C(c1cnn(C)c1)c1cc(C(=O)N(C)C)ccc1C#N (single isomer, unassigned) [Example 75 D1E1]
> 10 | > 10 | – | – | – | CC(c1nc(C(=O)Nc2cnoc2)c(O)c(=O)n1C)C(c1cnn(C)c1)c1cc(C(=O)N(C)C)ccc1C#N (single isomer, unassigned) [Example 75 D1E2]
> 10 | > 10 | – | – | – | CC(c1nc(C(=O)Nc2cnoc2)c(O)c(=O)n1C)C(c1cnn(C)c1)c1cc(C(=O)N(C)C)ccc1C#N (single isomer, unassigned) [Example 75 D2E1]
> 10 | > 10 | – | – | – | CC(c1nc(C(=O)Nc2cnoc2)c(O)c(=O)n1C)C(c1cnn(C)c1)c1cc(C(=O)N(C)C)ccc1C#N (single isomer, unassigned) [Example 75 D2E2]
< 1 | 1 to 10 | C (C = >50 fold selective for hTREX1) | – | – | CC(c1nc(C(=O)Nc2cnoc2)c(O)c(=O)n1C)C(c1ccccc1C#N)c1cn(C)nc1C(F)(F)F (single isomer, unassigned) [Example 90 D1E1]
> 10 | > 10 | A (A = <25 fold selective for hTREX1) | – | – | CC(c1nc(C(=O)Nc2cnoc2)c(O)c(=O)n1C)C(c1ccccc1C#N)c1cn(C)nc1C(F)(F)F (single isomer, unassigned) [Example 90 D1E2]
> 10 | > 10 | A (A = <25 fold selective for hTREX1) | – | – | CC(c1nc(C(=O)Nc2cnoc2)c(O)c(=O)n1C)C(c1ccccc1C#N)c1cn(C(C)C)nc1F (single isomer, unassigned) [Example 128 D1E2]
> 10 | > 10 | A (A = <25 fold selective for hTREX1) | – | – | CC(c1nc(C(=O)Nc2cnoc2)c(O)c(=O)n1C)C(c1cc(F)ccc1C#N)c1cn(C)nc1F (single isomer, unassigned) [Example 129 D1E1]
< 1 | < 1 | C (C = >50 fold selective for hTREX1) | – | – | CC(c1nc(C(=O)Nc2cnoc2)c(O)c(=O)n1C)C(c1cc(F)ccc1C#N)c1cn(C)nc1F (single isomer, unassigned) [Example 129 D1E2]
> 10 | > 10 | – | – | – | Cn1cc(C(c2ccccc2C#N)C(F)(F)c2nc(C(=O)Nc3cnoc3)c(O)c(=O)n2C)cn1 (single isomer, unassigned) [Example 148 D2]
> 10 | > 10 | A (A = <25 fold selective for hTREX1) | – | – | CC(c1nc(C(=O)Nc2cnoc2)c(O)c(=O)n1C(C)C)C(c1cnn(C)c1)c1ccccc1C#N (single isomer, unassigned) [Example 150 D1E1]
< 1 | 1 to 10 | C (C = >50 fold selective for hTREX1) | 182 | 0.00548 | CC(c1nc(C(=O)Nc2cnoc2)c(O)c(=O)n1C(C)C)C(c1cnn(C)c1)c1ccccc1C#N (single isomer, unassigned) [Example 150 D1E2]
> 10 | > 10 | A (A = <25 fold selective for hTREX1) | – | – | CC(c1nc(C(=O)Nc2cnoc2)c(O)c(=O)n1C(C)C)C(c1cnn(C)c1)c1ccccc1C#N (single isomer, unassigned) [Example 150 D2E1]
> 10 | > 10 | – | – | – | CC(c1nc(C(=O)Nc2cnoc2)c(O)c(=O)n1C(C)C)C(c1cnn(C)c1)c1ccccc1C#N (single isomer, unassigned) [Example 150 D2E2]
